Patent US20240279191A1, “SMALL MOLECULE INHIBITORS OF TEAD-YAP” (The General Hospital Corporation, priority 2021, published 2024)

How the values were obtained:
logD 7.4 = details: pH 7.4
[1] = Metabolic stability CLint, human (Tables H1, H2)
[2] = Metabolic stability CLint, mouse (Tables H1, H2)

Row | SMILES | logD 7.4 (logD 7.4) | CLint human [1] | CLint mouse [2]
1 | O=C(NCCc1ccccc1)C1CCN(C(=O)Oc2cccnc2)CC1 | 2.54 | 41 mL/min/kg | 98 mL/min/kg
2 | O=C(NCc1ccccc1)C1CCN(C(=O)Oc2cccnc2)CC1 | 2.5 | 24 mL/min/kg | 63 mL/min/kg
3 | NC(=O)c1cncc(OC(=O)N2CCN(CCCCCc3ccccc3)CC2)c1 | 3.8 | 66 mL/min/kg | 120 mL/min/kg
